Results from article PMC10051910 (Marine Drugs, 2023).

Assays:
[1] = tested on: COMI cells; test: GI50 on COMI cells under normoxic or hypoxic conditions; assay type: cell-based, Human; settings: Normoxia (21% oxygen), 48 h, mean ± SEM, n = 6
[2] = tested on: GSC#1 glioblastoma stem cell line; test: GI50 growth inhibition, viable cell count (Hoechst 33342/PI), 48 h; assay type: cell-based, Human
[3] = tested on: GB6 glioblastoma stem cell line; test: as above; assay type: cell-based, Human
[4] = tested on: GB7 glioblastoma stem cell line; test: as above; assay type: cell-based, Human
[5] = tested on: GB8 glioblastoma stem cell line; test: as above; assay type: cell-based, Human
[6] = tested on: GSC#151 glioblastoma stem cell line; test: as above; assay type: cell-based, Human
[7] = tested on: G166 glioblastoma stem cell line; test: as above; assay type: cell-based, Human
[8] = tested on: G144 glioblastoma stem cell line; test: as above; assay type: cell-based, Human
[9] = tested on: VIPI glioblastoma stem cell line; test: as above; assay type: cell-based, Human
[10] = tested on: COMI glioblastoma stem cell line; test: as above; assay type: cell-based, Human
[11] = tested on: panel of nine patient-derived GSC lines; test: GI50 growth inhibition over the GSC line panel; assay type: cell-based, Human; settings: range over nine GSC lines
[12] = tested on: MCF10A breast epithelium cell line; test: GI50 growth inhibition on non-tumor cell line, 48 h; assay type: cell-based, Human
[13] = tested on: Hs68 foreskin fibroblast cell line; test: as above; assay type: cell-based, Human
[14] = tested on: hTERT-HPNE pancreatic duct cell line; test: as above; assay type: cell-based, Human
[15] = tested on: ARPE-19 retinal pigmented epithelium cell line; test: as above; assay type: cell-based, Human
[16] = tested on: U87 glioblastoma cell line; settings: read-out: IC50 antiproliferative activity, synthetic arsenicin A; cited from earlier work

SMILES: CCCC1[As]2O[As]3O[As]1O[As](O2)C3CCC (stereo not shown)
- GI50 [1]: 40 nM
- Ratio GI50 ATO / GI50 alkyl polyarsenical [2]: 11.7
- Ratio GI50 ATO / GI50 alkyl polyarsenical [3]: 8.7
- Ratio GI50 ATO / GI50 alkyl polyarsenical [4]: 27.0
- Ratio GI50 ATO / GI50 alkyl polyarsenical [5]: 13.0
- Ratio GI50 ATO / GI50 alkyl polyarsenical [6]: 23.5
- Ratio GI50 ATO / GI50 alkyl polyarsenical [7]: 16.5
- Ratio GI50 ATO / GI50 alkyl polyarsenical [8]: 26.9
- Ratio GI50 ATO / GI50 alkyl polyarsenical [9]: 24.3
- Ratio GI50 ATO / GI50 alkyl polyarsenical [10]: 23.2
- fold greater potency than ATO on the GSC line panel [11]: 8.7–27 fold
- Selectivity Index (SI) ([12]; GI50 MCF10A / GI50 COMI): 13.3
- Selectivity Index (SI) ([12]; GI50 MCF10A / GI50 G144): 6.6
- Selectivity Index (SI) ([12]; GI50 MCF10A / GI50 G166): 2.2
- Selectivity Index (SI) ([12]; GI50 MCF10A / GI50 GB6): 1.6
- Selectivity Index (SI) ([12]; GI50 MCF10A / GI50 GB7): 10.6
- Selectivity Index (SI) ([12]; GI50 MCF10A / GI50 GB8): 1.9
- Selectivity Index (SI) ([12]; GI50 MCF10A / GI50 GSC#1): 2.9
- Selectivity Index (SI) ([12]; GI50 MCF10A / GI50 GSC#151): 3.1
- Selectivity Index (SI) ([12]; GI50 MCF10A / GI50 VIPI): 2.9
- Selectivity index (SI) value range ([12]; GI50 MCF10A / GI50 of GSC lines, range over nine GSC lines): 1.6 to 13.3
- Selectivity Index (SI) ([13]; GI50 Hs68 / GI50 COMI): 107
- Selectivity Index (SI) ([13]; GI50 Hs68 / GI50 G144): 53.6
- Selectivity Index (SI) ([13]; GI50 Hs68 / GI50 G166): 17.9
- Selectivity Index (SI) ([13]; GI50 Hs68 / GI50 GB6): 12.6
- Selectivity Index (SI) ([13]; GI50 Hs68 / GI50 GB7): 85.8
- Selectivity Index (SI) ([13]; GI50 Hs68 / GI50 GB8): 15.3
- Selectivity Index (SI) ([13]; GI50 Hs68 / GI50 GSC#1): 23.8
- Selectivity Index (SI) ([13]; GI50 Hs68 / GI50 GSC#151): 25.2
- Selectivity Index (SI) ([13]; GI50 Hs68 / GI50 VIPI): 23.8
- Selectivity index (SI) value range ([13]; GI50 Hs68 / GI50 of GSC lines, range over nine GSC lines): 12.6 to 107
- Selectivity Index (SI) ([14]; GI50 hTERT-HPNE / GI50 COMI): 43.8
- Selectivity Index (SI) ([14]; GI50 hTERT-HPNE / GI50 G144): 21.9
- Selectivity Index (SI) ([14]; GI50 hTERT-HPNE / GI50 G166): 7.3
- Selectivity Index (SI) ([14]; GI50 hTERT-HPNE / GI50 GB6): 5.1
- Selectivity Index (SI) ([14]; GI50 hTERT-HPNE / GI50 GB7): 35
- Selectivity Index (SI) ([14]; GI50 hTERT-HPNE / GI50 GB8): 6.3
- Selectivity Index (SI) ([14]; GI50 hTERT-HPNE / GI50 GSC#1): 9.7
- Selectivity Index (SI) ([14]; GI50 hTERT-HPNE / GI50 GSC#151): 10.3
- Selectivity Index (SI) ([14]; GI50 hTERT-HPNE / GI50 VIPI): 9.7
- Selectivity index (SI) value range ([14]; GI50 hTERT-HPNE / GI50 of GSC lines, range over nine GSC lines): 5.1 to 43.8
- Selectivity Index (SI) ([15]; GI50 ARPE-19 / GI50 COMI): 13.5
- Selectivity Index (SI) ([15]; GI50 ARPE-19 / GI50 G144): 6.8
- Selectivity Index (SI) ([15]; GI50 ARPE-19 / GI50 G166): 2.3
- Selectivity Index (SI) ([15]; GI50 ARPE-19 / GI50 GB6): 1.6
- Selectivity Index (SI) ([15]; GI50 ARPE-19 / GI50 GB7): 10.8
- Selectivity Index (SI) ([15]; GI50 ARPE-19 / GI50 GB8): 1.9
- Selectivity Index (SI) ([15]; GI50 ARPE-19 / GI50 GSC#1): 3
- Selectivity Index (SI) ([15]; GI50 ARPE-19 / GI50 GSC#151): 3.2
- Selectivity Index (SI) ([15]; GI50 ARPE-19 / GI50 VIPI): 3
- Selectivity index (SI) value range ([15]; GI50 ARPE-19 / GI50 of GSC lines, range over nine GSC lines): 1.6 to 13.5

SMILES: C1[As]2C[As]3O[As]1C[As](O2)O3
- IC50 [16]: 200 nM
